From patent US7521528B2, “Conformationally constrained parathyroid hormone (PTH) analogs with lactam bridges” (The General Hospital Corporation, priority 2003, dated 2009)

Experiments:
Type in all cases: cell-based
wild-type human P1R = target: T1, wild-type human P1R (Homo sapiens, UniProt Q03431); experiment: cAMP stimulation in COS-7 cells transiently transfected with P1R-WT
T1 construct: expressed in transfected cells; host or cells: COS-7 (transient transfection, FuGENE 6)
T1 sequence (Q03431 27-593): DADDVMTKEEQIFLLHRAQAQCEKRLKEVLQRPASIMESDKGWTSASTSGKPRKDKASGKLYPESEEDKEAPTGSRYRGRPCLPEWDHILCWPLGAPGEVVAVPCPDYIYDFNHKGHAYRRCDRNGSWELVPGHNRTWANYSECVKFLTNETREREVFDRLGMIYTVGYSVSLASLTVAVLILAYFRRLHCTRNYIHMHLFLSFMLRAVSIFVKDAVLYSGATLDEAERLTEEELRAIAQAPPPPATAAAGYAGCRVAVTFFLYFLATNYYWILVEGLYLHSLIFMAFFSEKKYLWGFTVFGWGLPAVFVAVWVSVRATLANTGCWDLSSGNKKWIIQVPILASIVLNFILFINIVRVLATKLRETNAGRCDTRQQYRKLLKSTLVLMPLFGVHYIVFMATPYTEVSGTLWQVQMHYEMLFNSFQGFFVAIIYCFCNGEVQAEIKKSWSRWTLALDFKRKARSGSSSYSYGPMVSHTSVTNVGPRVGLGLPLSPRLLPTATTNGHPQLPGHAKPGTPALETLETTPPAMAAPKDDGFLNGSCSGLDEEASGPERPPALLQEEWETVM
Procedure: (§1) Cell Culture. The cell line HKRK-B28 (Takasu, H., et al., J. Bone Miner. Res. 14:11-20 (1999)) was derived from the porcine kidney cell line, LLC-PK1 by stable transfection with plasmid DNA encoding the full-length P1R and expresses ˜280,000 receptors per cell. These cells, as well as COS-7 cells and SaOS-2-B10 cells, were cultured at […] in T-75 flasks ([…]) in Dulbecco's modified Eagle's medium (DMEM) supplemented with fetal bovine serum (10%), penicillin G (20 units/ml), streptomycin sulfate (20 μg/ml) and amphotericin B (0.05 μg/ml) in a humidified atmosphere containing 5% CO2. Stock solutions of EGTA/trypsin and antibiotics were from GIBCO; fetal bovine serum was from Hyclone Laboratories (Logan, Utah). […]
(§2) cAMP Stimulation. […] The cAMP content of the diluted lysate was determined by radioimmunoassay. The EC50 response values were calculated using nonlinear regression (see below).
(§3) Data Calculation. […] Differences between paired data sets were statistically evaluated using a one-tailed Student's t-test, assuming unequal variances for the two sets.
(§4) The peptide PTH(1-34)([Tyr^34]hPTH(1-34)NH2)(SEQ. ID. NO. 11) and analogs containing the indicated residues at positions 6 and/or 10 were evaluated for the capacity to stimulate cAMP accumulation in COS-7 cells transiently transfected with either the wild-type P1R(P1R-WT) or P1R-DelNt. […]

[1] = target: T2, recombinant full-length P1R (Homo sapiens, UniProt Q03431); experiment: cAMP stimulation in HKRK-B28 cells
T2 construct: expressed in transfected cells
T2 sequence (Q03431 27-593): T1 sequence (Q03431 27-593)
Procedure: as §1, §2, §3
The effects of installing a direct covalent linkage between the side chains of the residues at positions 6 and 10 on PTH analog function were also assessed. […]

[2] = target: T3, P1R-DelNt (truncated human P1R deleted for residues 24-181) (Homo sapiens, UniProt Q03431); experiment: cAMP stimulation in COS-7 cells transiently transfected with P1R-DelNt; details: at 1×10^−5, percent of maximum response of PTH(1-34) on P1R-WT
T3 construct: expressed in transfected cells; host or cells: COS-7 (transient transfection, FuGENE 6)
T3 sequence (Q03431 with tags, fused parts or gaps limits assumed): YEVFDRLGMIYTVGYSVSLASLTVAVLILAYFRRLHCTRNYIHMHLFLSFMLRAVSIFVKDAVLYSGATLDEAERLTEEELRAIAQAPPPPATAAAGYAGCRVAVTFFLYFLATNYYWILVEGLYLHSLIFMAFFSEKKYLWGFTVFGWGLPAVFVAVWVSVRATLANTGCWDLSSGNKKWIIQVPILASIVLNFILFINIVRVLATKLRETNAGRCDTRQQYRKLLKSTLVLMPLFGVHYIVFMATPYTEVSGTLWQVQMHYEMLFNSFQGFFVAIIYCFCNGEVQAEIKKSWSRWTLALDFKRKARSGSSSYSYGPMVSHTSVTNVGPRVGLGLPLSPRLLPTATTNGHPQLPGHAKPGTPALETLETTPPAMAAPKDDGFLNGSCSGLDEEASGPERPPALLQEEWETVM
Procedure: as §1, §2, §3, §4

- Emax at 1 µM (wild-type human P1R; COS-7, at 1×10^−6M, percent of maximum response of PTH(1-34) on P1R-WT): 100 ± 1%
- maximum cAMP response observed (wild-type human P1R; COS-7 cells, P1R-WT): 294±15 pM per well
- maximum cAMP response observed ([1]; PTH(1-34)): 416±51 pM per well
- Emax at 1 µM ([1]; at 1×10^−6 M, percent of maximum response of PTH(1-34)): 100 ± 5%
- Emax [2]: 44 ± 2%
SMILES: CC[C@H](C)[C@H](NC(=O)[C@H](CCC(=O)O)NC(=O)[C@H](CO)NC(=O)[C@@H](NC(=O)[C@@H](N)CO)C(C)C)C(=O)N[C@@H](CCC(N)=O)C(=O)N[C@@H](CC(C)C)C(=O)N[C@@H](CCSC)C(=O)N[C@@H](Cc1c[nH]cn1)C(=O)N[C@@H](CC(N)=O)C(=O)N[C@@H](CC(C)C)C(=O)NCC(=O)N[C@@H](CCCCN)C(=O)N[C@@H](Cc1c[nH]cn1)C(=O)N[C@@H](CC(C)C)C(=O)N[C@@H](CC(N)=O)C(=O)N[C@@H](CO)C(=O)N[C@@H](CCSC)C(=O)N[C@@H](CCC(=O)O)C(=O)N[C@@H](CCCNC(=N)N)C(=O)N[C@H](C(=O)N[C@@H](CCC(=O)O)C(=O)N[C@@H](Cc1c[nH]c2ccccc12)C(=O)N[C@@H](CC(C)C)C(=O)N[C@@H](CCCNC(=N)N)C(=O)N[C@@H](CCCCN)C(=O)N[C@@H](CCCCN)C(=O)N[C@@H](CC(C)C)C(=O)N[C@@H](CCC(N)=O)C(=O)N[C@@H](CC(=O)O)C(=O)N[C@H](C(=O)N[C@@H](Cc1c[nH]cn1)C(=O)N[C@@H](CC(N)=O)C(=O)N[C@@H](Cc1ccc(O)cc1)C(N)=O)C(C)C)C(C)C [PTH(1-34) (SEQ. ID. NO. 10), [Tyr^34]hPTH(1-34)amide]
